Reference: patent US10202356B2, “JAK2 and ALK2 inhibitors and methods for their use” (Tolero Pharmaceuticals, Inc., priority 2013, dated 2019)

System: hepcidin expression induced by BMP2 in HEPG2 cells
Assay: BMP2-induced hepcidin expression in HEPG2 cells
Format: cell-based
Details: BMP2 at 100 ng/μL

B1: BMP2: induces hepcidin expression by binding to and activating ALK2 (protein, UniProt P12643 283-396, looked up)
Bone morphogenetic protein 2: QAKHKQRKRLKSSCKRHPLYVDFSDVGWNDWIVAPPGYHAFYCHGECPFPLADHLNSTNHAIVQTLVNSVNSKIPKACCVPTELSAISMLYLDENEKVVLKNYQDMVVEGCGCR
hepcidin increase caused by BMP2 addition: > 20 fold
